Results from paper PMC10981688, “PCSK9 stimulates Syk, PKCδ, and NF-κB, leading to atherosclerosis progression independently of LDL receptor” (Nature Communications, 2024).

Biological target: recombinant human LOX1 (lectin-type oxidized LDL receptor 1) (human)
Test: BLI; BLItz system; PCSK9-His (hPCSK9, 500 nM, 120 s loading) immobilised on an anti-Penta-HIS sensor; association 120 s, dissociation 120 s; sensorgrams fit globally to a 1:1 binding model
Conditions: both partners purified

- Kd: 2830 nM
B1: recombinant human PCSK9 with 6x His tag (proprotein convertase subtilisin/kexin type-9) (natural protein)
chain: not shown
notes: proprotein convertase subtilisin/kexin type-9 (PCSK9), human, recombinant; written here as one chain; also called rhPCSK9-His; PCSK9-His
